From patent publication US9796673B2, “L-tartrate salt of pridopidine” (TEVA PHARMACEUTICALS INTERNATIONAL GMBH, priority 2014, dated 2017)

What was measured:
[1] = Dynamic vapor sorption (DVS) hygroscopicity; format: physicochemical; details: for Hygroscopicity 40% RH: Table 3, 40% RH; for Hygroscopicity 75% RH: Table 3, 75% RH; for Hygroscopicity 90% RH: Table 3, 90% RH
Procedure: DVS—Measurement of Dynamic Vapor Sorption: DVS experiments have been carried out using the DVS-HT instrument (Surface Measurement Systems, London, UK). This instrument measures the uptake and loss of vapor gravimetrically using a recording ultra-microbalance with a mass resolution of ±0.1 μg. The vapor partial pressure (±1.0%) around the sample is controlled by mixing saturated and dry carrier gas streams using electronic mass flow controllers. The desired temperature is maintained at ±0.1° C. […] The sample was loaded and unloaded at 40% RH and 25° C. (typical room conditions). A moisture sorption isotherm was performed as outlined below (2 scans giving 1 complete cycle). The software uses a least squares minimization procedure together with a model of the mass relaxation, to predict an asymptotic value. The measured mass equilibration value must be within 2% of that predicted by the software before proceeding to the next % RH value. The minimum equilibration time was set to 1 hour and the maximum to 4 hours.

[2] = pH column of water solubility table (Table 2)
[3] = 4 week, 40° C. and 75% RH

Row | Substance | takes up water ([1]; 0% RH) [%] | DVS weight gain ([1]; 70% RH) [%] | DVS weight gain ([1]; 90% RH) [%] | Hygroscopicity 40% RH [1] [%] | Hygroscopicity 75% RH [1] [%] | Hygroscopicity 90% RH [1] [%] | Deliquescence during the DVS test [1] | Hygroscopicity in words [1] | DVS weight gain ([1]; 40% RH) [%] | XRPD pattern before and after the DVS test [1] | relative humidity up to which substantially non-hygroscopic [1] | total uptake in moisture (DVS) ([1]; entire RH range, larger-scale batch) [%] | pH [2] | chemical and physical stability [3]
1 | pridopidine oxalate | 0.4 | 1.0 | 1.7 | 0.4 | 1.0 | 1.7 |  |  |  |  |  |  |  | 
2 | pridopidine succinate |  | 15 | 36 | 0.01 | 12 | 36 | deliquesced | very hygroscopic | 1 |  |  |  |  | 
3 | pridopidine L-tartrate |  | 0.73 | 1.98 | 0.02 | 0.7 | 2.0 |  |  | 0.02 | no change in XRPD pattern | at least 90% | ~2.3 | 3.3 | acceptable
